From patent US11685720B2, “Salt forms of URAT-1 inhibitors” (INVENTISBIO CO., LTD., priority 2018, dated 2023) come the findings set out here.

The data set is described as follows: Solubility test, suspension filtered and filtrate analyzed by HPLC. The note with it: 25° C. The class given is physicochemical. Here is the method:
Weighed 5 mg of a sample solid (1-Ca salt or Compound 1) into a 8 mL of glass vial, and then added 1 mL of a pH 6.8 buffer solution or water. The suspension was centrifuged under 200 rpm at 25° C., and 0.3 mL to 0.5 mL of […]. At each time point, the suspension was filtered to remove solid, and the filtrate was analyzed by HPLC.
The solubilities of the three salts and the Compound 1 were studied in pH 6.8 buffer and water, and the data was summarized in Table 5.

On to “calcium 2-(1-(((3-(4-cyanophenyl)pyridin-4-yl)thio)methyl)cyclopropyl)acetate [1-Ca salt]”, for which the Solubility (usually the dissolved amount per volume that the medium holds) (pH 6.8 buffer, 0.5 h) was determined as 264 µg/mL; the Solubility (pH 6.8 buffer, 2 h) came out at 279 µg/mL; the Solubility (water, 0.5 h) turned out to be 1657 µg/mL; the Solubility (water, 2 h) was 1625 µg/mL.
